Assay results: publication PMC8406319, “The dCache Chemoreceptor TlpA of Helicobacter pylori Binds Multiple Attractant and Antagonistic Ligands via Distinct Sites” (mBio, 2021)

How the values were obtained:
Assay in all cases: biochemical
TlpAM183A = molecular target: T1, TlpAM183A (Helicobacter pylori, UniProt O24925, M183A)
T1 sequence (O24925 28-299 M183A): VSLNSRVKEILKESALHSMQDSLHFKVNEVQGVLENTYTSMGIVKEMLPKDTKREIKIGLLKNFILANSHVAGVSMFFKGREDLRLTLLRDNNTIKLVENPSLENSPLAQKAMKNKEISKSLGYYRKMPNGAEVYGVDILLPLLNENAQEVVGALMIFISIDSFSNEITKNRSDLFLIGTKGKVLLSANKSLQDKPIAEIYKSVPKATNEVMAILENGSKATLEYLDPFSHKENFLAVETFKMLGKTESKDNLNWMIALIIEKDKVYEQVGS
From the text: (§1) The periplasmic portion of TlpA (TlpALBD), amino acids 28 to 299, from Helicobacter pylori SS1 was cloned into a pBH4 expression vector (pBH4_TlpALBD) to generate an N-terminal 6×His-tagged construct, with a tobacco etch virus (TEV) protease site, under the control of isopropyl-β-D-thiogalactopyranoside (IPTG) ([19]). […] TlpALBD and all point mutants were purified as described previously by Sweeney et al. ([19]).
(§2) Purified TlpALBD was immobilized on a CM5 series S sensor chip, and binding affinities were tested using a Biacore S200 instrument (GE Healthcare) as described previously ([39], [57], [59]). Briefly, proteins were captured using an amine-coupling kit (GE Healthcare), in which the carboxylmethyl dextran matrix of the sensor chip was activated by the injection of a mixture of 0.2 M 1-ethyl-3-[(3-dimethylamino)propyl]-carbodiimide (EDC) and 0.05 M N-hydroxysuccinimide (NHS), followed by the neutralization of the remaining unreacted NHS ester groups by the injection of 1 M ethanolamine-HCl (pH 8.0). Purified TlpALBD was diluted in 10 mM sodium acetate buffer (pH 4.5) at a concentration of 100 μg/ml for immobilization to the chip. A total of 8,400 response units (RU) of TlpALBD were captured on flow cell 2. As a negative control, flow cell 1 was a blank control undergoing the same treatment as the other flow paths, without the protein injection. This set enabled double-reference subtraction of the responses (2 − 1, 3 − 1, and 4 − 1). The tested compounds were prepared as a stock concentration of 100 to 200 mM in PBS. The compounds were then diluted between 1 nM and 1 mM in a series of 1:10 dilutions in PBS and run over the flow cells at a flow rate of 30 μl/min. Between each sample testing, a series of buffer-only injections was run to enable double-blank subtraction for the sensorgram assessment. […] The data sets were analyzed using Biacore S200 evaluation software 2.0.2; sensorgrams were double-reference subtracted.

TlpAD254A = molecular target: T2, TlpAD254A (Helicobacter pylori, UniProt O24925, D254A)
T2 sequence (O24925 28-299 D254A): T1 sequence (O24925 28-299 M183A)
From the text: as §1, §2

TlpALBD (TlpAWT) = molecular target: T3, TlpALBD (TlpAWT) (Helicobacter pylori, UniProt O24925); settings: SPR
T3 sequence (O24925 28-299): T1 sequence (O24925 28-299 M183A)
From the text: as §1, §2

TlpAY252A = molecular target: T4, TlpAY252A (Helicobacter pylori, UniProt O24925, Y252A)
T4 sequence (O24925 28-299 Y252A): T1 sequence (O24925 28-299 M183A)
From the text: as §1, §2

TlpAD165A = molecular target: T5, TlpAD165A (Helicobacter pylori, UniProt O24925, D165A)
T5 sequence (O24925 28-299 D165A): T1 sequence (O24925 28-299 M183A)
From the text: as §1, §2

TlpAY228A = molecular target: T6, TlpAY228A (Helicobacter pylori, UniProt O24925, Y228A)
T6 sequence (O24925 28-299 Y228A): T1 sequence (O24925 28-299 M183A)
From the text: as §1, §2

## O=C(O)CCC(=O)C(=O)O [α-Ketoglutarate, α-ketoglutaric acid]
TlpAM183A
  Kd: 256 ± 27.6 µM
TlpAD254A
  Kd: 321 ± 21.6 µM
TlpALBD (TlpAWT); Mean binding affinity ± SD, Table 1, n = 3
  Kd: 224 ± 11.2 µM
TlpALBD (TlpAWT); dissociation constant [Kd], WT TlpALBD
  Kd: > 45 µM
TlpAY252A
  Kd: 289 ± 22.6 µM
TlpAD165A
  Kd: 124 ± 7.1 µM
TlpAY228A
  Kd: 295 ± 27.7 µM
